Data as given in publication PMC8448983 (European journal of medicinal chemistry, 2021).
Marks after values point to notes of the source that are not given here.

Amino acid sequences for entries named in this document (tags omitted).
UniProt P0DMS8, whole entry: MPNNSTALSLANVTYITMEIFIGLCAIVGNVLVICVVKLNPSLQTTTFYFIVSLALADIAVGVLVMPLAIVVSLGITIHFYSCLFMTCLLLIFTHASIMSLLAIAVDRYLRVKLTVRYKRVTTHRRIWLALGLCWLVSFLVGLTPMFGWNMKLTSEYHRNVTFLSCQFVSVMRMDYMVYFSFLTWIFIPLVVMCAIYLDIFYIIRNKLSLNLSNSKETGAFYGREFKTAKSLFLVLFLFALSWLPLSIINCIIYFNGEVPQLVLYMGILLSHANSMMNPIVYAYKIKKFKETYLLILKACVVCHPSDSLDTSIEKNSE
UniProt P30542, whole entry: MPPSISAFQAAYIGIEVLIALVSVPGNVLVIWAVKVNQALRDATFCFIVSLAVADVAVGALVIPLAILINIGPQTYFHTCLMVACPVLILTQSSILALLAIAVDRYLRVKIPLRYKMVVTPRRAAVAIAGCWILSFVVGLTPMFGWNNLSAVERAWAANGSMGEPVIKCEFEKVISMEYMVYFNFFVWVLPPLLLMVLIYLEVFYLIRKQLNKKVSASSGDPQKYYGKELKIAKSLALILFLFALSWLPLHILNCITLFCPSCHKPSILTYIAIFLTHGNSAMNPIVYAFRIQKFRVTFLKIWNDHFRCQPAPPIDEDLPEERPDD

Key:
[1] = molecular target: human A3 adenosine receptor (Homo sapiens, UniProt P0DMS8); details: read-out: Ki, A3 AR; USEF; HeLa-A3 membranes; 10 nM [3H]-NECA
[2] = molecular target: human A3 receptor (Homo sapiens, UniProt P0DMS8); assay: Functional cAMP assay in CHO-A3 cells; format: cell-based
[3] = molecular target: human A1 adenosine receptor (Homo sapiens, UniProt P30542); details: 10 μM compound; USEF; CHO-A1 membranes; 1 nM [3H]-DPCPX

N^6-[3-(1,12-dicarba-closo-dodecaboran-1-yl)propyl]-2-chloroadenosine [Compound 23]
Ki [1]: 2200 nM
KB (antagonist mode; functional character at A3) ([2]; inhibition of NECA (0.1 μM) effect on cAMP): no antagonist
% Emax ([2]; maximal agonist effect): 104%
EC50 ([2]; read-out: EC50 (cAMP), agonist mode): 3.76 µM
percent of inhibition, A1 AR [3]: 38 ± 2 %^a
